This passage reports GI50 results from patent US11602534B2, “Pyrimidine derivative kinase inhibitors” (HEFEI INSTITUTES OF PHYSICAL SCIENCE, CHINESE ACADEMY OF …, priority 2017, dated 2023).

In the experiment the test system is TEL-VEGFR2-BaF3. Nature of the experiment: Proliferation of TEL-VEGFR2-BaF3 cells, CCK8 cell viability assay. Format: cell-based. The note with it: Mus musculus, 72 h, read-out: GI50 TEL-VEGFR2-BaF3. The source says:
In this example the following cells were used: […] (purchased from ATCC), mouse P210-BaF3 (stably expressing BCR-ABL mutant activated kinase), mouse P210/T315I-BaF3 (stably expressing BCR-ABL/T315I mutant activated kinase), mouse FLT3-ITD-BaF3 (stably expressing FLT3/ITD mutant activated kinase), mouse TEL-FLT3-BaF3 (stably expressing FLT3 kinase), mouse TEL-cKIT-BaF3 (stably expressing cKIT kinase), mouse BaF3-tel/T670I-cKit (stably expressing cKIT/T670I mutant activated kinase), mouse Tel-VEGFR2-BaF3 (stably expressing VEGFR2 kinase), mouse Tel-PDGFRα-BaF3 (stably expressing PDGFRα kinase), mouse Tel-PDGFRβ-BaF3 (stably expressing PDGFRβ kinase), mouse Tel-RET-BaF3 (stably expressing RET kinase). The above cell lines were all constructed by our laboratory according to the following method: the kinase region sequences of human P210, P210/T315I, FLT3/ITD, FLT3, cKIT, cKIT/T670I, VEGFR2, PDGFRα, PDGFRβ, RET were respectively amplified by PCR, and inserted into MSCV-Puro vectors having N-terminal TEL or TPR fragments (Clontech). […]
GI50 (unit: μM) was calculated by quantifying the number of living cells based on quantitative measurement of reductive dehydrogenase in living cells with CCK8 cell viability assay kit (Bestbio, China).
On the technique in general: Formazan colour is commonly taken as a measure of viable cells.

One may read the GI50 as the concentration that inhibits growth by half.

In the case of `CNC(=O)c1cc(Oc2ccc(NC(=O)Nc3ccc(Cl)c(C(F)(F)F)c3)cc2)ccn1` [Sorafenib, reference compound], the GI50 worked out at 33 nM.
